## Measured affinities in a library of Ab-14 light chain variants

Reference: Li et al. 2023, doi:10.1038/s41467-023-39022-2. File: FLAb, binding data.

Target peptide (SARS-CoV-2 spike, HR2 region): PDVDLGDISGINAS

Each scFv is VH, three GGGGS repeats, VL, as in the parent Ab-14, and differs from it in the CDRs of the light chain only.
VH: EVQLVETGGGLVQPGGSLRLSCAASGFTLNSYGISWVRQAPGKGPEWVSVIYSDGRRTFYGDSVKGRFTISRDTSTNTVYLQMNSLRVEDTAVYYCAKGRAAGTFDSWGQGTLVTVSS
VL: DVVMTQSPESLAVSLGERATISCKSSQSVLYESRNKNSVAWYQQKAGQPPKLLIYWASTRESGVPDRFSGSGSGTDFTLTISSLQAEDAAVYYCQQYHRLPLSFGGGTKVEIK

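The parent was found by panning a naive human phage display library on the peptide. Designed CDR sequences, proposed from the first random library and measured here. Group labels follow the data file (Ctrl: baseline library sampled from a position-specific scoring matrix, with some repeated check sequences; En: ensemble of fine-tuned language models; GP: Gaussian process model; HC: hill climbing; Gen: genetic algorithm; Gibbs: Gibbs sampling; a sequence that several methods proposed may carry one label only). In AlphaSeq, yeast of one mating type display the scFv and yeast of the other type display the target. Binding brings cells together so that they mate, and sequencing counts the barcode pairs among the diploids. Scores were corrected for input abundance and mapped to Kd with protein pairs of known affinity run in the same pool. Mating was done six times.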

Each variant is given by its three light chain CDRs, as the data file delimits them; those of the parent are KSSQSVLYESRNKNSVA, WASTRES, QQYHRLPLS.
This list holds designs with more than six substitutions.
Values are log10 of the apparent Kd in nM; lower means stronger binding.
Averages over replicates are reported, and they cover detected replicates only.
"nd" marks a missing value. The strain was present, yet no cells mated with the target were sequenced in any replicate, which points to weak or no binding.
Values of this round are not directly comparable with the first-round values of the same sequences.
In the paper, a design with two or fewer of six values counts as a poor binder.
Background: pairings of all light chain designs with three empty control strains gave a value in 4% of cases (median 2.64, 5th percentile 1.59). Values in that range, when seen in few replicates, are hard to tell from nonspecific mating.

CDR-L1,CDR-L2,CDR-L3,group,"log10 Kd (nM), mean",seen in
KLQNSFLYESRQSNNVA,EASQRES,QQYHRLPLS,GP_Gibbs,0.33,6 of 6
KFSMSEDYESRNSNSVA,NAQTRMS,QQYHRLPLS,GP_Gibbs,0.59,6 of 6
MISQSFLIGMKMKNSVA,QTSTREE,QQYDRLPLI,En_HC,0.73,6 of 6
SLSMSMAFLSRNKNSVA,ENSTRES,QQYHRLPLM,En_HC,1.42,6 of 6
QLSMNLEIYGQEQWAVA,MGEMRTE,QQYHKLPLS,En_Gibbs,0.77,1 of 6
TIGSTLMYGYRNRNNVA,EVSERLN,QQYDRLPLF,En_Gen,0.63,6 of 6
GMSDSMTETIADANHIA,DGEARDV,QQYARLPLI,En_Gibbs,1.26,6 of 6
KLKTMPGEIPKEGNSVA,HAEARTP,QQYHRLPLI,En_Gibbs,0.79,6 of 6
KVSEFMRGLMQQKDSIA,DNVTRNN,QQYDRLPLS,En_Gen,2.05,6 of 6
IVSQLMMWGMHAKNSIA,EAQTRLN,QQYERLPLF,En_Gen,3.02,2 of 6
HITYGMMLMGRHSKSIA,QAEERAK,QQYDRLPLA,En_Gen,1.10,6 of 6
SLAESAHMESRNKNSVA,DNNTRES,QHYDRLPLS,En_HC,3.94,3 of 6
YVSGQLAEGWNQQEAIA,HVSYKED,QQYYKLPLS,En_Gibbs,2.18,2 of 6
KLTMITGLEKVSKNNVA,EMETRVQ,QQYNRLPLA,En_Gen,-0.20,6 of 6
KVPGEQGYESRNKNSVA,EASTRES,QQYHRLPLS,GP_Gibbs,0.17,6 of 6
MLSQMTGLGMKAKNSVA,QANMRFD,QQYYRLPLI,En_Gen,1.01,6 of 6
MFSQLVYTGSRTKNAVA,QASTREN,QQYHRLPLM,En_HC,1.61,3 of 6
KVSQEDPMESRNKNSVA,HASLRES,QQYHRLPLS,GP_Gibbs,0.10,6 of 6
KISQNMGETQRMKNSVA,EVSTVPS,QQYWRLPLS,En_HC,1.25,6 of 6
MIAHAPLSINQRMNSVA,NGAEAVI,QQYDRLPLA,En_Gibbs,0.99,6 of 6
KIHQSDLYEDRNINSVA,SASQRSS,QQYHRLPLS,GP_Gibbs,0.35,6 of 6
KWQQSSDYESRNFNSVA,NASTRCS,QQYHRLPLS,GP_Gibbs,0.35,6 of 6
KWMQMVMQESRNKNSVA,NASTRMQ,QQYHRLPLS,GP_Gibbs,0.58,6 of 6
KIGMTLNQLMQKKNNVA,DLVEREQ,QQYHRLPLS,En_Gen,0.14,6 of 6
KLTSVTGTEKVRGNNVA,EMETREQ,QQYNRLPLS,En_Gen,0.64,6 of 6
KQQQSMLYESRNSNSVA,NASTREE,QQYHRLPLM,GP_Gibbs,-0.29,6 of 6
KLSQVTHSEMKVKNSIA,EMVTREK,QQYDRLPLS,En_HC,1.63,3 of 6
NLDKADYEMRQMINNIA,DMSTLVA,QQYASLPLD,En_Gibbs,1.17,6 of 6
QLSGITGHLSAIKNNVA,EMETREN,QQYERLPLS,En_Gen,0.04,6 of 6
TLGDVTRMESNKKNSIA,DMSNRAD,QQYHRLPLS,En_HC,-0.10,6 of 6
IVSQLMIWGMHLKNSIA,EAQTRVN,QQYDRLPLM,En_Gen,3.14,1 of 6
KLSMTTEMEHVNRNSVA,ELVTRMS,QQYNRLPLS,En_Gen,0.84,6 of 6
NLVERAQMQDSGRQAIA,NAHARAT,QQYFHLPLT,En_Gibbs,0.41,6 of 6
YVSGQLDEGWNQQEAIA,HVSYKED,QQYYKLPLS,En_Gibbs,0.79,5 of 6
KISQMFNVGTKNTSSLA,EMNTRGM,QDYHRLPLS,En_HC,3.03,5 of 6
TIGQTLMSGMRNRSNVA,EVSQRLN,QQYDRLPLL,En_Gen,2.35,6 of 6
NLSWKQIMQNMDSMAVA,QTEQRNA,QQYARLPLS,En_Gibbs,0.21,6 of 6
KAQWLWPYWSRNWNSVA,NASTREQ,QQYHRLPLS,GP_Gibbs,0.17,6 of 6
QIEWYNSGLTEAKNSVA,GVEHRMN,QQYMRLPLE,En_Gibbs,-0.07,6 of 6
HFDDLMVEWDANQSQVA,DHNEAQH,QQYDRLPLS,En_Gibbs,2.38,2 of 6
TISQLHNMGTFAINSVA,QAEIRNN,QQYDRLPLA,En_Gen,1.93,6 of 6
HIDQVKYDQKTAQNNIA,SGAERVW,QQYSRLPFS,En_Gibbs,0.02,6 of 6
HMSNLTLQGMRMRNSVA,QMTTREN,QQYDHLPLS,En_Gen,1.54,6 of 6
HISQMVMYGSCNKYNVA,QVSLREE,QQYHRLPLS,En_HC,0.27,6 of 6
AFTQNIFYGQRDDNSIA,HADELVK,QQYDRFPLA,En_Gibbs,1.10,6 of 6
ILMQPYKEPGAAYNNIA,DGSIRLD,QQYHRLPLV,En_Gibbs,0.81,6 of 6
KIGGTLNMLEHKQNNVA,DLVERGN,QQYFRLPLS,En_Gen,-0.29,6 of 6
KIDISELGGSRNKNSVA,NASTREE,QQYHRLPLS,GP_Gibbs,-0.21,6 of 6
KMSQSNDYEERNSNAVA,NASQREM,QQYHRLPLS,GP_Gibbs,0.25,6 of 6
KLGQSVAMTSRGKNNVA,DLNERER,QQYHRLPLS,En_HC,-0.10,6 of 6
QISMVLNFESAKGMNVA,QMETRVN,QQYDRLPLS,En_Gen,1.40,6 of 6
QLLTGVTENAKNGKAIA,EHELKAH,QQYFRLPFS,En_Gibbs,0.96,6 of 6
KMQQLKWYEQRNKNSVA,DGSTRES,QQYHRLPLS,GP_Gibbs,0.19,6 of 6
MLGDVGFGLTRKEDSVA,DNDTRED,QQYDRLPLS,En_Gen,1.57,6 of 6
KLVQSNLYESRNTNSVA,NASQREQ,QQYHRLPLS,GP_Gibbs,1.08,6 of 6
MIEIIQDGYDEMRSAIA,DTNLVRM,QQYYHLPLM,En_Gibbs,nd,0 of 6
MVSQLMLWGLHATNSIA,EAETRGN,QQYDRLPLF,En_Gen,1.59,4 of 6
HFGLATMLEEYVRNSVA,NNSTREE,QQYDRLPLS,En_Gen,3.60,3 of 6
KLDFSALEESRNPNSVA,SASTRES,QDYHRLPLS,GP_Gibbs,-0.08,6 of 6
KISMLINTTFEVSNNVA,EMVTRMK,QQYNRLPLS,En_Gen,2.16,6 of 6
MLSMVTEGMARKHSSVA,DNSTRES,QQYDRLPLS,En_Gen,1.36,1 of 6
SISGFMKTLSAHRNSVA,DMTNRED,QQYDHLPLS,En_Gen,0.38,6 of 6
KITTSLYSWGSDKGAVA,EENITVR,QQYFRLPFS,En_Gibbs,0.70,6 of 6
KLEQSVMLESRNVNAVA,SASRREL,QQYHRLPLS,GP_Gibbs,-0.06,6 of 6
KMQQSEGMESRNVNSVA,HASQRLE,QQYHRLPLS,GP_Gibbs,-0.18,6 of 6
KLLQSVNYGMRALNSVA,QMETRED,QQYDRLPLS,En_HC,2.61,4 of 6
QIYQAMHTLSQKKNNVA,DVNERGQ,QQYYRLPLS,En_Gen,0.43,6 of 6
IVSQLMLWGHLAKNSIA,EAQTRVN,QQYDRLPLI,En_Gen,2.35,3 of 6
KLSLFSLHGDLPWSAVA,NEVVKLA,QQYFRLPIH,En_Gibbs,1.15,1 of 6
YLSQSVLYESRKKNSVA,YGSTREP,QQYHKLPLS,Ctrl,1.01,6 of 6
ILSQMLLTAGNKHNSVA,QANNRES,QQYHRLPLS,En_HC,1.77,6 of 6
KLSQSQGYEQRNSNSVA,EASTRED,QQYHRLPLS,GP_Gibbs,-0.23,6 of 6
TLTQVTMVESYVKNSVA,QASTRLE,QDYHRLPLS,En_HC,0.75,6 of 6
QFARAMYHGGNDNQSIA,DAMTYIK,QQYSRLPLF,En_Gibbs,2.45,6 of 6
KLSGSMLYEQRMKNSVA,QASQRLS,QQYHRLPLS,GP_Gibbs,0.25,6 of 6
MVNQIMDHLSKNTNSVA,ETVTREE,QQYDRLPLS,En_Gen,1.30,6 of 6
QLLMATMQETYNKNSVA,HAQTRED,QSYHRLPLS,En_HC,0.54,6 of 6